We go through one compound from BindingDB's records for US9359399.

Protein sequences, listed by entry. Tags and fused reporters are not part of them. Lines headed by an entry give the natural chain unless they say otherwise; changes in a name come on top.
UniProt P33534: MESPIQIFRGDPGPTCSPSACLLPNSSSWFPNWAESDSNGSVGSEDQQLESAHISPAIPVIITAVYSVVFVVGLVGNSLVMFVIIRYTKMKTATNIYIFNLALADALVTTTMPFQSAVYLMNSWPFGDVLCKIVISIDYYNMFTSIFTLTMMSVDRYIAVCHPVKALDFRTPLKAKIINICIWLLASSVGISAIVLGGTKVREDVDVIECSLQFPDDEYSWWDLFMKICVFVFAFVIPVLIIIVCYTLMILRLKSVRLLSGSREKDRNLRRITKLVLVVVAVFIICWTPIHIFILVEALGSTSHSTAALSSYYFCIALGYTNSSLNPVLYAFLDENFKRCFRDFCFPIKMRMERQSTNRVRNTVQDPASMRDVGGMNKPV
UniProt P41145: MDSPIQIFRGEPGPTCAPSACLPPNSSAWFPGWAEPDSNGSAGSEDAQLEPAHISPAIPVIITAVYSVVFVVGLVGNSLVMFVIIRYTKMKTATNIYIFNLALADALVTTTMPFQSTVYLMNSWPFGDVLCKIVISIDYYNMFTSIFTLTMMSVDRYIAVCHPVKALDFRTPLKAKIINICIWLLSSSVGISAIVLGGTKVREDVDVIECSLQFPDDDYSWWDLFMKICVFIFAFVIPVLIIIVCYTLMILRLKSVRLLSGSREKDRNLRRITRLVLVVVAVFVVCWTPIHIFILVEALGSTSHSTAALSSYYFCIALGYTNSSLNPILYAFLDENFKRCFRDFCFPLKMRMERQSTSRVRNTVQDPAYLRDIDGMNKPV

The target in experiment [1] is Kappa-type opioid receptor (Mus musculus, UniProt P33534). In words: Time Resolved Fluorescence Resonance Energy Transfer (TR-FRET)-Based cAMP Immunoassay.
For experiment [2], the target named is Kappa-type opioid receptor (Homo sapiens, UniProt P41145). Described as above.

A word on the EC50: it is the midpoint of the concentration-response curve. Low values mean a more potent agent, high ones a less potent agent.

With `CC(C)C[C@@H](NC(=O)[C@@H](Cc1ccccc1)NC(=O)[C@H](N)Cc1ccccc1)C(=O)N[C@H](CCCCN)C(=O)N1CCC2(CC1)C(=O)NCN2c1ccccc1`, the EC50 amounted to 0.0767 nM in experiment [1] and 0.0165 nM in experiment [2].
